Measurements: US20100065444A1, “PACK CONTAINING SOFT CAPSULES” (priority 2007, published 2010)

Assay: Stability of multivitamin soft capsules in container with channel former and absorbent embedded in the inside walls, 30° C./65% RH
Type: physicochemical
Method: Multivitamin soft capsules (active-compound composition and capsule shell as described below) are introduced into a resealable container in/on the inside wall(s) of which at least one channel former is embedded, at least over part of the area, together with at least one absorbent (type: M-3006-16 Activ-Vial) in the inside walls of which a molecular sieve having a capacity of 1.92 g is embedded.
The multivitamin soft capsules are stored at 30° C. and 65% relative humidity (RH), removed from storage after predetermined times, assessed visually with respect to their appearance and investigated analytically with respect to the amounts of active compound present.

[1] = Multivitamin soft capsule batch GD 06 0045, 6 months
[2] = Multivitamin soft capsule batch GD 06 0045, Start

amount of active compound present [1]: 2.37 mg/capsule
amount of active compound present, % of start [1]: 99%
amount of active compound present [2]: 2.40 mg/capsule
amount of active compound present, % of start [2]: 100%
Substance: Thiamine nitrate
